Earlier results, collected in patent publication US20260139007A1, “EPHA4 ANTAGONISTS AND USES THEREOF” (SANFORD BURNHAM PREBYS MEDICAL DISCOVERY INSTITUTE, priority 2023, published 2026).

Amino acid sequences for entries named in this document (tags omitted). Residues count along the entry.
UniProt P54764, 20-986 limits assumed: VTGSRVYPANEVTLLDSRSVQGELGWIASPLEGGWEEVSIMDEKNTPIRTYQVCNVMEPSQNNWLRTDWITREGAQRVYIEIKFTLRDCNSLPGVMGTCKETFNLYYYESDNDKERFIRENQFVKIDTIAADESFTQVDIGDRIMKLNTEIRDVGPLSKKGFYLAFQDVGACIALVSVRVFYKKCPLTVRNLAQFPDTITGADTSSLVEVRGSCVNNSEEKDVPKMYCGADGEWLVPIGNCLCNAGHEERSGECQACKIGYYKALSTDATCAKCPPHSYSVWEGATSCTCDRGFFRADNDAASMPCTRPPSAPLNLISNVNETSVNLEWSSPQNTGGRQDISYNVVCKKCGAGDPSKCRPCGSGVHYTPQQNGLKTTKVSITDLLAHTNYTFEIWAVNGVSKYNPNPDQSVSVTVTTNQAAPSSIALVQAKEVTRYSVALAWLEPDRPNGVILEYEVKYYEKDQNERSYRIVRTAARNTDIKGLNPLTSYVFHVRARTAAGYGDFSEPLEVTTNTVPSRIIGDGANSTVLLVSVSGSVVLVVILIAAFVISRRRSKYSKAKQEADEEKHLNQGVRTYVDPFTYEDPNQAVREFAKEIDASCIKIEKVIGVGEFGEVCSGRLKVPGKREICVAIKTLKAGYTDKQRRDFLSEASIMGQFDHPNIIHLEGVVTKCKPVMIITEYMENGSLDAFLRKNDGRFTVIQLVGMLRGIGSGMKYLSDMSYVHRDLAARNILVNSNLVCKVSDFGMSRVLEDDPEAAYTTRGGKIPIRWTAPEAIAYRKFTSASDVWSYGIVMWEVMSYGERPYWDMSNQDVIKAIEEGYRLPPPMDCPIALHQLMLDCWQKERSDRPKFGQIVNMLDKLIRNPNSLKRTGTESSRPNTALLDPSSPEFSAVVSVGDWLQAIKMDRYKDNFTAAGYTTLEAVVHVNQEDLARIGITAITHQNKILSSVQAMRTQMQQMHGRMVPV

Key:
EphA4 = EphA4 (Homo sapiens, UniProt P54764)
Aβ oligomers = conditions: in vitro and in vivo mouse models
[1] = system: rat model of spinal cord injury

CC(C)C[C@H](NC(=O)[C@H](CO)NC(=O)[C@H](CO)NC(=O)[C@H](CC(C)C)NC(=O)[C@@H](NC(=O)[C@@H]1CCCN1C(=O)[C@H](Cc1c[nH]c2ccccc12)NC(=O)[C@H](Cc1ccc(O)cc1)NC(=O)[C@@H]1CCCN1C(=O)[C@H](CC(C)C)NC(=O)[C@H](Cc1ccc(O)cc1)NC(=O)[C@@H](N)CCCCN)C(C)C)C(=O)O
Kd (EphA4): 800 to 1000 nM
effect on ALS pathogenesis (rat SOD1 G93A ALS model): significantly dampened ALS pathogenesis
effect on toxic effects of Aβ oligomers (Aβ oligomers): can inhibit the toxic effects of Aβ oligomers
axon sprouting and limb function [1]: promote axon sprouting and recovery of limb function
